Reference: patent publication US20100222282A1, “METHOD OF DIAGNOSIS AND METHOD OF TREATMENT” (ENTRESS AB, priority 2006, published 2010)
Values joined by “and” are separate entries in the source; they are usually repeats but may differ in a detail not shown here. Equal values may be shown once. Read-outs that look alike come from different tables or passages of the source.

Conditions: for AKG Day 1 (blood, individual rats): beginning of the experiment, baseline
Excerpt: The aim of this experiment was to study the relationship between the blood level of AKG and survival of elderly rats. Forty Sprague-Dawley rats randomly chosen (2-3 years old) from the Department of Cell & Organisms Biology in Lund University were used in the experiment. The rats were divided into four groups, 10 rats each, two control groups and two experiment groups. […] The mixtures were titrated with 0.01 M NaOH to correct the pH.
Blood samples were taken at the beginning of the experiment from all rats and blood AKG levels were estimated. Experimental time was 8 weeks and parameters as AKG blood levels and survival were monitored.

O=C([O-])CCC(=O)C(=O)[O-].[Na+].[Na+] [Na2AKG * 2H2O, sodium alpha-ketoglutarate]
AKG Day 1 (blood, individual rats) (Experiment Group I (2.28 g)): 0.15 µg/mL and 0.23 µg/mL
AKG Day 56 (blood, individual rats) (Experiment Group I (2.28 g), end of the experiment): 0.9 µg/mL
AKG Day 1 (blood, individual rats) (Experiment Group II (22.8 g)): <0.1 µg/mL and 0.34 µg/mL
